Laboratory results from published antibiotic growth screens (doi:10.1038/s41589-023-01349-8).
The list shows a part of the results.

test system: A. baumannii ATCC 17978; test: relative growth (fraction of control); higher = less inhibition; conditions: 50 µM

Row | Compound | relative growth
1 | C[C@@H]1CN([C@@H](C)CO)S(=O)(=O)c2ccc(-c3ccc(F)cc3)cc2O[C@H]1CN(C)S(C)(=O)=O | 0.888
2 | C[C@H]1CCCN(C(=O)CCNS(=O)(=O)c2ccc3c(c2)c(=O)n(C)c(=O)n3C)C1 | 0.983
3 | COc1ccc(S(=O)(=O)N2C[C@@H](O)COC[C@@H]3O[C@H](CC(=O)NCc4ccc(Cl)c(Cl)c4)CC[C@H]32)cc1 | 0.877
4 | CCOC(=O)c1c(C)c(Cl)c(O)c(Cl)c1O | 1.04
5 | CCNC(=O)CC[C@H](N)C(=O)[O-].[K+] | 1
6 | C1CCN2C[C@@H]3C[C@H](CN4CCCC[C@@H]34)[C@H]2C1.O=S(=O)(O)O | 1
7 | COc1ccc(C#Cc2ccc3c(c2)O[C@H](CN(C)S(=O)(=O)c2ccccc2F)[C@H](C)CN([C@H](C)CO)S3(=O)=O)cc1 | 1.12
8 | CO[C@@H]1O[C@H](C(=O)O)[C@@H](O)[C@H](O)[C@@H]1O.CO[C@H]1[C@H](O)[C@H](O)[C@H](C)O[C@H]1C(=O)O [ALGINIC ACID [Mol Wt ~200,000; monomers shown]] | 1.14
9 | CCOC(=O)n1ccn(C)c1=S | 1.12
10 | O=C(CN1CCOCC1)NCC[C@H]1CC[C@H](NC(=O)c2ccc3c(c2)OCO3)[C@H](CO)O1 | 0.918
11 | COc1cc(O)c2c(c1)C(=O)c1cc(C)cc(O)c1C2=O | 1.11
12 | C[C@H]1CC[C@@]2(OC1)OC1CC3C4CC[C@@H]5C[C@@H](O)CCC5(C)C4CCC3(C)C1[C@@H]2C (stereo partly drawn) | 1.13
13 | C=CCOC(=O)[C@H]1[C@@H]2C(=O)O[C@@H](c3ccccc3)[C@@H](c3ccccc3)N2[C@@H](c2ccc(OCCOC(=O)[C@H]3C[C@H]4C(=O)N[C@@H](CC(C)C)C(=O)N4[C@H]3c3ccc(O)cc3)cc2)[C@]12C(=O)Nc1ccccc12 | 1.09
14 | CC(C)CC(NC(=O)C(C)NC(=O)CNC(=O)C(NC=O)C(C)C)C(=O)NC(C)C(=O)NC(C(=O)NC(C(=O)NC(C(=O)NC(Cc1c[nH]c2ccccc12)C(=O)NC(CC(C)C)C(=O)NC(Cc1c[nH]c2ccccc12)C(=O)NC(CC(C)C)C(=O)NC(Cc1c[nH]c2ccccc12)C(=O)NC(CC(C)C)C(=O)NC(Cc1c[nH]c2ccccc12)C(=O)NCCO)C(C)C)C(C)C)C(C)C (stereo not drawn) [GRAMICIDIN (gramicidin A shown)] | 1.14
15 | CC(=O)OCC(=O)[C@@]1(OC(C)=O)[C@@H](C)CC2C3C[C@H](F)C4=CC(=O)C=C[C@]4(C)[C@@]3(F)[C@@H](O)C[C@@]21C (stereo partly drawn) | 1.21
16 | CO[C@H](CN(C)S(=O)(=O)c1ccc(C)cc1)[C@H](C)CN([C@@H](C)CO)S(=O)(=O)c1cccc(Cl)c1 | 0.722
17 | C=CCN1C(=O)[C@@]2(O[C@@H](CCn3cc([C@H](O)c4ccccc4)nn3)[C@H]([Si](C)(C)c3ccc(OC)cc3)[C@H]2C)c2cc(N3CCOC3=O)ccc21 | 1.1
18 | O=C(C[C@@H]1CC[C@@H](NS(=O)(=O)c2ccccc2)[C@@H](CO)O1)NCc1ccncn1 | 1.03
19 | Cl.O=C(c1ccc(OCCN2CCCCC2)cc1)c1c(-c2ccc(O)cc2)sc2cc(O)ccc12 | 1
20 | O=C(CCCCCNC(=O)OCc1ccc([C@H]2[C@H](C(=O)NCc3ccccc3)c3ccccc3C(=O)N2Cc2ccccc2)cc1)NO | 0.968
21 | C=CCN1C(=O)[C@@]2(O[C@@H](CCO)[C@H]([Si](C)(C)c3ccc(OC)cc3)[C@H]2C)c2cc(NC(=O)[C@H](C)O)ccc21 | 0.716
22 | O=C(O)CNc1ccc(C(=O)O)cc1 | 0.854
23 | NC(=O)CSCC(=O)Nc1ccccc1F | 0.987
24 | Cc1cc(NS(=O)(=O)c2ccc(N)cc2)no1 | 1.06
25 | C=C[C@](C)(O)CCC=C(C)C | 1.24
26 | COC(=O)C1=CO[C@@H](O[C@@H]2O[C@H](CO)[C@@H](O)[C@H](O)[C@H]2O)[C@H]2C1C(=O)C[C@@H]2C (stereo partly drawn) | 1.13

Row | Compound | relative growth
27 | NCC[C@@H]1CC[C@H](NC(=O)C2CC2)[C@@H](CO)O1 | 1.09
28 | O=C(C[C@@H]1CC[C@H]2[C@@H](COC[C@@H](O)CN2C(=O)c2ccc3c(c2)OCO3)O1)NCCN1CCCCC1 | 1.03
29 | COCCOC(=O)N1C(=O)[C@@]2(c3cc(C#CCC(C(=O)OC)C(=O)OC)ccc31)[C@H](C(=O)N1CCc3cc(OC)c(OC)cc3C1)[C@H]1C(=O)O[C@H](c3ccccc3)[C@H](c3ccccc3)N1[C@@H]2c1ccccc1OCCO | 1.18
30 | O=C(c1ccccc1O)N1CCOCC1 | 0.902
31 | Cc1cccc(C(=O)NN)c1 | 0.943
32 | CN1CCN(C(=O)C[C@@H]2C=C[C@H](NC(=O)c3ccc4c(c3)OCO4)[C@@H](CO)O2)CC1 | 0.99
33 | Cc1cc(C)c(S(=O)(=O)N2CCO[C@@H]2CNC(=O)C(=O)NCCCN2CCCC2=O)c(C)c1 | 0.937
34 | CCOC(=O)c1ncn2c1C(=O)OC2(C)C | 1.03
35 | COCCNC(=O)C[C@@H]1C[C@@H]2c3cc(NC(=O)COC)ccc3O[C@@H]2[C@H](CO)O1 | 0.966
36 | C[C@@]1(C2CC2)NC(=O)NC1=O | 1.12
37 | C[C@H]1CN([C@@H](C)CO)S(=O)(=O)c2ccc(C#Cc3ccccn3)cc2O[C@@H]1CN(C)Cc1ccccc1 | 1.01
38 | CN(C)Cc1cn(CC[C@H]2CC[C@H](N)[C@@H](CO)O2)nn1 | 0.983
39 | CO[C@@H]1CN(C)C(=O)c2cc(NC(=O)Nc3ccccc3F)ccc2OC[C@@H](C)N(Cc2ccccc2C(=O)O)C[C@@H]1C | 1.13
40 | COCc1cc(C)[nH]c(=O)c1C#N | 0.949
41 | CCOC(=O)Cn1cccc2oc(=O)nc1-2 | 0.97
42 | CCCC1O[C@@H]2C[C@H]3[C@@H]4CCC5=CC(=O)C=C[C@]5(C)[C@H]4[C@@H](O)C[C@]3(C)[C@]2(C(=O)CO)O1 (stereo partly drawn) | 1.02
43 | CCN(CC)CCCC(C)Nc1ccnc2cc(Cl)ccc12.O=P(O)(O)O.O=P(O)(O)O (stereo not drawn) | 1.15
44 | C[C@H](O)C1=C[C@]2(CC[C@@H]3C(C(=O)O)=CO[C@@H](O[C@@H]4O[C@H](CO)[C@@H](O)[C@H](O)[C@H]4O)[C@@H]32)OC1=O | 1.09
45 | CO[C@H]1CN(C)C(=O)c2ccc(NS(=O)(=O)CC(F)(F)F)cc2OC[C@H](C)N(C(=O)NC(C)C)C[C@H]1C | 0.923
46 | Nc1ccc(/C=C/c2ccccc2)cc1 | 1.01
47 | O=C(C[C@H]1CC[C@H]2[C@@H](COC[C@@H](O)CN2S(=O)(=O)c2ccccc2F)O1)NCc1ccccc1F | 1.09
48 | C[C@@H]1O[C@H](O[C@@H]2[C@H](Oc3c(-c4ccc(O)cc4)oc4cc(O)cc(O)c4c3=O)O[C@H](CO[C@@H]3O[C@H](C)[C@@H](O)[C@H](O)[C@@H]3O)[C@@H](O)[C@@H]2O)[C@@H](O)[C@H](O)[C@@H]1O | 1.02
49 | CN(C)CCCNC(=O)C[C@@H]1C=C[C@H](NC(=O)Cc2cccnc2)[C@H](CO)O1 | 0.909
50 | COC[C@H]1CNN1C(=O)c1cc(C)oc1C | 0.89
51 | COc1ccc2oc(C(C)=O)cc2c1 | 0.88
52 | Cn1nccc1C(=O)NCCN | 0.927

Row | Compound | relative growth
53 | O=NN(CCCl)C(=O)NCCCl | 1.02
54 | NCC[C@@H]1CC[C@H](NC(=O)C2CCCC2)[C@H](CO)O1 | 1.05
55 | CCOC(=O)c1ncn2c1CN(C)C(=O)c1cc(F)ccc1-2 | 0.936
56 | CO[C@H]1CN(C)C(=O)c2cc(NS(=O)(=O)CC(F)(F)F)ccc2OC[C@H](C)N(Cc2ccccn2)C[C@@H]1C | 0.971
57 | COc1cc(/C=C/c2ccc(O)cc2)cc(OC)c1 | 0.533
58 | C[C@@]1(c2cccs2)CC(c2cccs2)=Nc2ccccc2N1 | 0.908
59 | CC1=C(/C=C/C(C)=C/C=C/C(C)=C/C=C/C=C(C)/C=C/C=C(C)/C=C/C2=C(C)C(=O)CCC2(C)C)C(C)(C)CCC1=O [CANTHAXANTHIN (euglenanone)] | 0.905
60 | CN(C)CC(=O)N[C@@H]1CC[C@@H](CCNC(=O)C2CC2)O[C@@H]1CO | 0.917
61 | C[C@@H]1CC[C@]2(C)C(C=O)=CCC[C@H]2[C@@]1(C)CC1OC(O)C(=O)[C@]12CO2 (stereo partly drawn) | 0.147
62 | CC(=O)[C@H]1CCC2C3C[C@H](C)C4=CC(=O)CC[C@]4(C)C3[C@@H](O)C[C@@]21C (stereo partly drawn) | 0.894
63 | CCOC(=O)c1c(NC(C)=O)no[n+]1[O-] | 1.08
64 | Cc1ccc(S(=O)(=O)N2C[C@@H](O)COC[C@H]3O[C@@H](CC(=O)N[C@@H]4CCN(Cc5ccccc5)C4)CC[C@@H]32)cc1 | 1.01
65 | CCN(CCCCOC(=O)c1ccc(OC)c(OC)c1)C(C)Cc1ccc(OC)cc1.Cl (stereo not drawn) | 1.21
66 | N#C[C@@H]1C[C@@H]2C[C@@H]2N1C(=O)[C@@H](N)[C@]12CC3CC(C[C@@](O)(C3)C1)C2 | 1.16
67 | Cl.NCCCC[C@H](N)C(=O)O | 1.02
68 | C=c1ccc(S(=O)(=O)NC[C@@H](C)O)cc1=C1NN=C2c3ccccc3C(C)=NN21 | 1.24
69 | COc1ccc(S(=O)(=O)N[C@@H]2CC[C@H](CC(=O)N3CCC(Cc4ccccc4)CC3)O[C@H]2CO)cc1 | 0.907
70 | NCCCc1nc2c(s1)CCCC2 | 0.989
71 | O=C(C[C@H]1NC(=O)NC1=O)Nc1ccccc1 | 1.09
72 | COc1cc2nc(N3CCN(C(=O)C4CCCO4)CC3)nc(N)c2cc1OC.Cl (stereo not drawn) | 1.06
73 | O=C(C[C@@H]1C=C[C@@H](NC(=O)CN2CCOCC2)[C@H](CO)O1)NCCc1ccccc1 | 0.96
74 | COCC(=O)N(C)C[C@H]1Oc2cc(-c3ccc(OC)cc3)ccc2S(=O)(=O)N([C@H](C)CO)C[C@@H]1C | 1.04
75 | CS(=O)(=O)c1ccccc1CC(=O)O | 1.01
76 | CCCNC(=O)N(C)C[C@@H]1Oc2cc(C#Cc3cccc(F)c3)ccc2S(=O)(=O)N([C@H](C)CO)C[C@H]1C | 0.869
77 | Cc1ccccc1S(=O)(=O)N1C[C@H](O)COC[C@@H]2O[C@@H](CC(=O)NCc3ccccc3Cl)CC[C@H]21 | 0.977
78 | Clc1ccc(/C=C/C2=Nc3cccc4cccc(c34)N2)cc1 | 1.1
